Assay results reported in ChEMBL document CHEMBL1155783, “Novel sterically hindered cannabinoid CB1 receptor ligands” (Bioorg Med Chem, 2008).

The chains behind the UniProt entries cited, without tags or fusion partners.
UniProt P21554, whole entry: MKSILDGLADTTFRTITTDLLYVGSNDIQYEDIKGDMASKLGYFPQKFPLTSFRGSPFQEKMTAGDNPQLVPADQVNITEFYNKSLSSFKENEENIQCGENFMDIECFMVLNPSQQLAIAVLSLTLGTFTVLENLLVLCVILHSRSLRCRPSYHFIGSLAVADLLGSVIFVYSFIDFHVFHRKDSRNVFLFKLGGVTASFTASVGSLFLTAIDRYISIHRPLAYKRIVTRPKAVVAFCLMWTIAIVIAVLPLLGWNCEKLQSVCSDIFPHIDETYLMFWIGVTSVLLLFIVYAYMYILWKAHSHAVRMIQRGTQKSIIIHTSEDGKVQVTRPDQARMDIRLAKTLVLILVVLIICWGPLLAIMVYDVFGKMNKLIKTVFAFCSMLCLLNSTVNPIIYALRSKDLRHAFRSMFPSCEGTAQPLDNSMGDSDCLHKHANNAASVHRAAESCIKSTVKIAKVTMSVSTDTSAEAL

Biological target: Cannabinoid receptor 1 (Homo sapiens, UniProt P21554)
Assay: biochemical
Type: cell-based, HEK293

In the case of `Cc1ccc(Cn2nc(C(=O)N[C@@H]3C(C)(C)[C@@H]4CC[C@@]3(C)C4)cc2-c2ccc(Cl)c(C)c2)cc1` [SR-144528], the Ki is reported as greater than 5.6 µM.
